Reference: publication PMC8878330 (Molecules, 2022)

By UniProt entry, the sequences of proteins in these tests, tags left out. Residues count along the entry.
UniProt C7C422, 29-270 limits assumed: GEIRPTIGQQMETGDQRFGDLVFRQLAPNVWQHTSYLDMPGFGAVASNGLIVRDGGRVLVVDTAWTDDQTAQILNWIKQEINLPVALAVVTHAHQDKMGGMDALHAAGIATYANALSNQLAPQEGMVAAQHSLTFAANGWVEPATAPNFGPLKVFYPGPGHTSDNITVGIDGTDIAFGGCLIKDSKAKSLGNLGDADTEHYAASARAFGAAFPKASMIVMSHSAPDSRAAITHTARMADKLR

Target: T1, New Delhi metallo-β-lactamase-1 (NDM-1) (Klebsiella pneumoniae, UniProt C7C422)
T1 construct: gene blaNDM-1
Experiment: biochemical

SMILES: CN(Cc1cnc2nc(N)nc(N)c2n1)c1ccc(C(=O)N[C@@H](CCC(=O)O)C(=O)O)cc1 [methotrexate]
- IC50: 29.7 µM
